## Measured affinities in a library of Ab-14 heavy chain variants

Values reported by Engelhart et al. 2022, doi:10.1038/s41597-022-01779-4 (FLAb copy).

The target is the same throughout: PDVDLGDISGINAS, from the HR2 region of SARS-CoV-2 spike.

Parent: Ab-14, a human scFv built as VH, the linker GGGGSGGGGSGGGGS, VL. Only the CDRs of the heavy chain vary.
VH: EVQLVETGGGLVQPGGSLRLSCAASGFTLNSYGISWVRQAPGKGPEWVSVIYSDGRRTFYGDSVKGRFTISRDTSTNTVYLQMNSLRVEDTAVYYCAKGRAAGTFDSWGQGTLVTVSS
VL: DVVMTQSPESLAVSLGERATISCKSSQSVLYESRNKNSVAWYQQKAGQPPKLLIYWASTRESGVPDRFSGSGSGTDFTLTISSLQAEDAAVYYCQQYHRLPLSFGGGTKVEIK

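The starting antibody came from a phage panning campaign against this peptide. AAYL49 was designed without a model: most single CDR substitutions and a random sample of double and triple ones. Affinity was read by AlphaSeq, a pooled yeast mating assay with surface-displayed partners. The frequency of each diploid, read from paired DNA barcodes, reflects how well the two displayed proteins bind. A regression on co-assayed BCL2-family reference pairs converts the normalised counts of each replicate to an apparent Kd. Each pool was mated in three replicate cultures.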

Each variant is given by its three heavy chain CDRs, as the data file delimits them; those of the parent are GFTLNSYGIS, VIYSDGRRTFYGDSVK, GRAAGTFDS.
This list gathers variants with a substitution at S35 (VH, numbered from residue 1).
The read-out is the apparent dissociation constant on a log10 scale (nM): the lower, the stronger.
A mean of the replicates is given; it leaves out those without a signal.
Where no diploid with the target was found in that replicate, the entry reads "nd": below detection, most likely a poor binder, though not proof of it.
The list is sorted by this average, lowest first, undetected variants last.
Nonspecific signal, from three strains lacking the peptide, appeared in 15% of pairings of library AAYL49, centred on 4.06 (5% of these signals below 2.83); values are not corrected for it. The control count says in how many pairings with the empty strains this scFv gave a signal.

With GFTLNSYGID | VIYSGGRRTFYGDSVK | GRAAGQFDS the result was nd, 2.76, nd (controls 7 of 9).
With GFTLNSYEIP | VIYSDGRRTFYVDSVK | GRAAGTFDS the result was 3.26, nd, nd (controls 1 of 9).
With GFTLNSYGIW | VIYSDGRRTFYLDSVK | GRAAGTEDS the result was nd, 3.34, nd (controls 0 of 9).
With GFTLASYGIR | VIYSDGRRTFYGDSVK | GGAAGTFDS the result was nd, nd, 3.54 (controls 3 of 9).
With GFTLNMYGIL | VIYSDGRRTFYGDSVK | GRAAGTFDW the result was 3.58, 2.72, 4.97 (mean 3.76; controls 1 of 9).
With GFTLNSYSIG | VIYSDGRRTFYGDSVK | GRAAGTFDV the result was 4.69, 3.17, nd (mean 3.93; controls 2 of 9).
With GFTLNSYGIK | LIYSDGRRTFYGTSVK | GRAAGTFDS the result was nd, 4.83, 3.21 (mean 4.02; controls 2 of 9).
With GFTLNSYGII | VIYSDGRCTFYGDSVK | GRAAGTFDS the result was nd, 3.44, 4.70 (mean 4.07; controls 1 of 9).
With GFTLISYGIK | VIYSDGRFTFYGDSVK | GRAAGTFDS the result was nd, 4.21, nd (controls 2 of 9).
With GFTLNSYGIH | KIYSDGRRTFYGDSVK | GRAAGTFDL the result was nd, 4.23, nd (controls 3 of 9).
With GFTLNSYGIQ | VFYSDGRRTFYGDSVK | GRAAGTFDS the result was 4.81, 3.42, 4.58 (mean 4.27; controls 4 of 9).
With GTTLNSYGIY | FIYSDGRRTFYGDSVK | GRAAGTFDS the result was nd, 4.66, 3.95 (mean 4.30; controls 1 of 9).
With GFTLNSYGIW | VIASDGRRTFYGDSLK | GRAAGTFDS the result was 4.65, nd, nd (controls 0 of 9).
With GFTLSSYGID | VIYSDGRNTFYGDSVK | GRAAGTFDS the result was 5.09, nd, nd (controls 3 of 9).
With GFTLNSGGIL | VIYSNGRRTFYGDSVK | GRAAGTFDS the result was nd, nd, 5.36 (controls 2 of 9).
With GFTLNSYGIF | VIYSDGRRTFYGDSVK | GEAAGPFDS the result was nd, nd, nd (controls 0 of 9).
With GFTLNSYGIA | VIYSDGRRTFYTDVVK | GRAAGTFDS the result was nd, nd, nd (controls 3 of 9).
With GFTLNSYGIP | VIYSDGRRTPYGDSVK | GRARGTFDS the result was nd, nd, nd (controls 1 of 9).
With GFTLNSYGIK | VIHSDGRRTVYGDSVK | GRAAGTFDS the result was nd, nd, nd (controls 0 of 9).
With GFTLNSYGIK | VIYSDGRRTFYGDSVK | GRAAYYFDS the result was nd, nd, nd (controls 0 of 9).
With GFTLNSYGIF | VPYSDGSRTFYGDSVK | GRAAGTFDS the result was nd, nd, nd (controls 0 of 9).
With GFTLNSYGIN | VIYSDGYRTVYGDSVK | GRAAGTFDS the result was nd, nd, nd (controls 1 of 9).
With GFTLNSYGIC | VIYADGQRTFYGDSVK | GRAAGTFDS the result was nd, nd, nd (controls 1 of 9).
With GFTLNSYGIY | VIYSDGRRTFYGDSVK | GRHAGTFDS the result was nd, nd, nd (controls 2 of 9).
With GFTLNSYGII | VIYSDGRREFYGDSVK | GRAAGYFDS the result was nd, nd, nd (controls 1 of 9).
With GFTLNSYGII | MIYSDGRLTFYGDSVK | GRAAGTFDS the result was nd, nd, nd (controls 0 of 9).
With GFKLNSYGIT | VIYSDGRRTFYGVSVK | GRAAGTFDS the result was nd, nd, nd (controls 1 of 9).
With GFTLNSYGIA | VIYSDGMRTFYGDSVK | GEAAGTFDS the result was nd, nd, nd (controls 0 of 9).
With GFTLNSYGIT | VIYFKGRRTFYGDSVK | GRAAGTFDS the result was nd, nd, nd (controls 0 of 9).
With GFTLNSYGIN | VIYSDGRRQFYGDCVK | GRAAGTFDS the result was nd, nd, nd (controls 1 of 9).
With GFTLNSYGIQ | VIYSDGRRTWYGDSVK | GRAAGAFDS the result was nd, nd, nd (controls 0 of 9).
With GFTLDSYGIV | VIYSDGRRTFYADSVK | GRAAGTFDS the result was nd, nd, nd (controls 1 of 9).

Top 2 of the variants detected in all replicates, tightest first:

| CDR-H1 | CDR-H2 | CDR-H3 | log10 Kd, replicates | mean, log10 nM | signal with controls |
|---|---|---|---|---|---|
| GFTLNMYGIL | VIYSDGRRTFYGDSVK | GRAAGTFDW | 3.58, 2.72, 4.97 | 3.76 | 1 of 9 |
| GFTLNSYGIQ | VFYSDGRRTFYGDSVK | GRAAGTFDS | 4.81, 3.42, 4.58 | 4.27 | 4 of 9 |